Among the data in US7192924B2, “Corticotropin releasing factor 2 receptor agonists” (priority 2002, dated 2007) are EC50 values, retold here.

Each structure is given as a SMILES string. Where two headings read alike, the source gives them in different places.

The target of one assay is T1, CRF1R (Homo sapiens, UniProt P34998).
T1 sequence (P34998 24-415): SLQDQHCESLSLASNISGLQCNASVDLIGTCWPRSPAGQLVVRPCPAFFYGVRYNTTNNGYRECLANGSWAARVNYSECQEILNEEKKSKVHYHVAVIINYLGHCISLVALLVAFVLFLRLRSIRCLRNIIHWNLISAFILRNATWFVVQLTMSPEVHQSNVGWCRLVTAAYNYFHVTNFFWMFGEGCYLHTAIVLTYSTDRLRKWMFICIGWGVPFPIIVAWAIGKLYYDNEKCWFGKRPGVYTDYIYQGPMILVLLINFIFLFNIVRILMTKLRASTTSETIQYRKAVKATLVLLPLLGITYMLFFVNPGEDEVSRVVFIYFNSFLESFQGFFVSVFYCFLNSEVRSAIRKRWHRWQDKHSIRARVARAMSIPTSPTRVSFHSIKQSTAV
Nature of the assay: CRF1R agonist activity (EC50, Emax), called comparative CRF binding. Format: cell-based. A digest of the protocol:
(§1)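 cAMP read-out: CRE-linked reporter (e.g. luciferase, CAT, GFP) or lysate cAMP in CRF1R- or CRF2R-expressing cells after peptide exposure; vehicle control comparison. Signal from any non-target CRFR subtracted.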

The target of the next assay is T2, CRF2R (Homo sapiens, UniProt Q13324).
T2 sequence (Q13324 1-411): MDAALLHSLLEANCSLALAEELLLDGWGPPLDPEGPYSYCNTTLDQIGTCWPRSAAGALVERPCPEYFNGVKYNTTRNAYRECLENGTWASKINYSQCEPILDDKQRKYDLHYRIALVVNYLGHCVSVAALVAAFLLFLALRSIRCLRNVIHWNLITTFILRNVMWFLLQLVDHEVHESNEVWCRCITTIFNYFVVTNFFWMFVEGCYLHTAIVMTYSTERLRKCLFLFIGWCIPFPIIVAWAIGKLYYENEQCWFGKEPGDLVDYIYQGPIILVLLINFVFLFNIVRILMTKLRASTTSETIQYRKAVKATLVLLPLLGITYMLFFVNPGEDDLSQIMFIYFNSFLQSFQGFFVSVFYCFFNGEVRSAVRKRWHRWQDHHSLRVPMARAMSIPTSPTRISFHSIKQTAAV
As to the kind of experiment: CRF2R agonist activity (EC50, Emax), called comparative CRF binding. Format: cell-based. The procedure, abridged:
as §1

By EC50 is commonly meant the concentration giving half of the maximal effect. Turning to `CC[C@H](C)[C@H](NC(=O)[C@@H](NC(=O)[C@H](CC(=O)O)NC(=O)[C@H](CC(C)C)NC(=O)[C@H](CC(C)C)NC(=O)[C@H](CC(C)C)NC(=O)[C@H](CCCNC(=N)N)NC(=O)[C@H](CC(N)=O)NC(=O)[C@H](CC(N)=O)NC(=O)[C@H](C)NC(=O)[C@H](C)NC(=O)[C@H](CCC(N)=O)NC(=O)[C@H](CCC(N)=O)NC(=O)[C@H](CCCCN)NC(=O)[C@H](CCC(=O)O)NC(=O)[C@H](CCCCN)NC(=O)[C@H](CCC(=O)O)NC(=O)[C@H](CCC(N)=O)NC(=O)[C@H](CCCCN)NC(=O)[C@H](CCC(=O)O)NC(=O)[C@@H](NC(=O)[C@H](CCC(=O)O)NC(=O)[C@@H](NC(=O)[C@H](CCSC)NC(=O)[C@H](CCCCN)NC(=O)[C@H](CCCNC(=N)N)NC(=O)[C@H](CC(C)C)NC(=O)[C@H](CC(C)C)NC(=O)CNC(=O)[C@H](Cc1ccccc1)NC(=O)[C@@H]1CCCN1C(=O)[C@H](CC(C)C)NC(=O)[C@H](CC(=O)O)NC(=O)[C@@H](NC(=O)[C@H](CO)NC(=O)[C@@H](NC(=O)[C@@H]1CCCN1C(=O)[C@@H]1CCCN1C(=O)CNC(=O)[C@@H]1CCC(=O)N1)[C@@H](C)CC)[C@@H](C)CC)[C@@H](C)CC)[C@@H](C)CC)[C@@H](C)O)C(N)=O` [compound 68], the figures for the EC50 on CRF1R (read-out: CRF1R EC50) and at CRF2R (read-out: CRF2R EC50) were greater than 0.1 µM and 0.0386 µM, respectively.
In the case of `CC[C@H](C)[C@H](NC(=O)[C@@H](NC(=O)[C@H](CC(=O)O)NC(=O)[C@H](CC(C)C)NC(=O)[C@H](CC(C)C)NC(=O)[C@H](CC(C)C)NC(=O)[C@H](CCCNC(=N)N)NC(=O)[C@H](CC(N)=O)NC(=O)[C@H](CC(N)=O)NC(=O)[C@H](C)NC(=O)[C@H](C)NC(=O)[C@H](CCC(N)=O)NC(=O)[C@H](CCC(N)=O)NC(=O)[C@H](CCCCN)NC(=O)[C@H](CCC(=O)O)NC(=O)[C@H](CCCCN)NC(=O)[C@H](CCC(=O)O)NC(=O)[C@H](CCC(N)=O)NC(=O)[C@H](CCCCN)NC(=O)[C@H](CCC(=O)O)NC(=O)[C@@H](NC(=O)[C@H](CCC(=O)O)NC(=O)[C@@H](NC(=O)[C@H](CCSC)NC(=O)[C@H](CCCCN)NC(=O)[C@H](CCCNC(=N)N)NC(=O)[C@H](CC(C)C)NC(=O)[C@H](CC(C)C)NC(=O)[C@H](CCC(=O)O)NC(=O)[C@@H](NC(=O)[C@@H]1CCCN1C(=O)[C@H](CC(C)C)NC(=O)[C@H](CC(=O)O)NC(=O)[C@@H](NC(=O)[C@H](CO)NC(=O)[C@@H](NC(=O)[C@@H]1CCCN1C(=O)[C@@H]1CCCN1C(=O)CNC(=O)[C@@H]1CCC(=O)N1)[C@@H](C)CC)[C@@H](C)CC)[C@@H](C)O)[C@@H](C)CC)[C@@H](C)CC)[C@@H](C)O)C(N)=O` [compound 71], the figures for the EC50 at CRF1R and on CRF2R were greater than 0.1 µM and 0.0948 µM, respectively.
Regarding `CC[C@H](C)[C@H](NC(=O)[C@@H](NC(=O)[C@H](CC(=O)O)NC(=O)[C@H](CC(C)C)NC(=O)[C@H](CC(C)C)NC(=O)[C@H](CC(C)C)NC(=O)[C@H](CCCNC(=N)N)NC(=O)[C@H](CC(N)=O)NC(=O)[C@H](CC(N)=O)NC(=O)[C@H](C)NC(=O)[C@H](C)NC(=O)[C@H](CCC(N)=O)NC(=O)[C@H](CCC(N)=O)NC(=O)[C@H](CCCCN)NC(=O)[C@H](CCC(=O)O)NC(=O)[C@H](CCCCN)NC(=O)[C@H](CCC(=O)O)NC(=O)[C@H](CCC(N)=O)NC(=O)[C@H](CCCCN)NC(=O)[C@H](CCC(=O)O)NC(=O)[C@@H](NC(=O)[C@H](CCC(=O)O)NC(=O)[C@@H](NC(=O)[C@H](CCSC)NC(=O)[C@H](CCCCN)NC(=O)[C@H](CCCNC(=N)N)NC(=O)[C@H](CC(C)C)NC(=O)[C@H](CC(C)C)NC(=O)[C@H](Cc1c[nH]cn1)NC(=O)[C@@H](NC(=O)[C@@H]1CCCN1C(=O)[C@H](CC(C)C)NC(=O)[C@H](CC(=O)O)NC(=O)[C@@H](NC(=O)[C@H](CO)NC(=O)[C@@H](NC(=O)[C@@H]1CCCN1C(=O)[C@@H]1CCCN1C(=O)CNC(=O)[C@@H]1CCC(=O)N1)[C@@H](C)CC)[C@@H](C)CC)[C@@H](C)CC)[C@@H](C)CC)[C@@H](C)CC)[C@@H](C)O)C(N)=O` [compound 77], the EC50 at CRF1R (read-out: CRF1R EC50) was greater than 0.1 µM; on CRF2R (read-out: CRF2R EC50) it was 0.0433 µM.
As to `CC[C@H](C)[C@H](NC(=O)[C@@H](NC(=O)[C@H](CC(=O)O)NC(=O)[C@H](CC(C)C)NC(=O)[C@H](CC(C)C)NC(=O)[C@H](CC(C)C)NC(=O)[C@H](CCCNC(=N)N)NC(=O)[C@H](CC(N)=O)NC(=O)[C@H](CC(N)=O)NC(=O)[C@H](C)NC(=O)[C@H](C)NC(=O)[C@H](CCC(N)=O)NC(=O)[C@H](CCC(N)=O)NC(=O)[C@H](CCCCN)NC(=O)[C@H](CCC(=O)O)NC(=O)[C@H](CCCCN)NC(=O)[C@H](CCC(=O)O)NC(=O)[C@H](CCC(N)=O)NC(=O)[C@H](CCCCN)NC(=O)[C@H](CCC(=O)O)NC(=O)[C@@H](NC(=O)[C@H](CCC(=O)O)NC(=O)[C@@H](NC(=O)[C@H](CCSC)NC(=O)[C@H](CCCCN)NC(=O)[C@H](CCCNC(=N)N)NC(=O)[C@H](CC(C)C)NC(=O)[C@H](CC(C)C)NC(=O)[C@H](Cc1ccc(O)cc1)NC(=O)[C@@H](NC(=O)[C@@H]1CCCN1C(=O)[C@H](CC(C)C)NC(=O)[C@H](CC(=O)O)NC(=O)[C@@H](NC(=O)[C@H](CO)NC(=O)[C@@H](NC(=O)[C@@H]1CCCN1C(=O)[C@@H]1CCCN1C(=O)CNC(=O)[C@@H]1CCC(=O)N1)[C@@H](C)CC)[C@@H](C)CC)[C@@H](C)CC)[C@@H](C)CC)[C@@H](C)CC)[C@@H](C)O)C(N)=O` [compound 79], the EC50 is greater than 0.1 µM at CRF1R and 0.0223 µM on CRF2R.
In the same order, the values of `CC[C@H](C)[C@H](NC(=O)[C@@H](NC(=O)[C@H](CC(=O)O)NC(=O)[C@H](CC(C)C)NC(=O)[C@H](CC(C)C)NC(=O)[C@H](CC(C)C)NC(=O)[C@H](CCCNC(=N)N)NC(=O)[C@H](CC(N)=O)NC(=O)[C@H](CC(N)=O)NC(=O)[C@H](C)NC(=O)[C@H](C)NC(=O)[C@H](CCC(N)=O)NC(=O)[C@H](CCC(N)=O)NC(=O)[C@H](CCCCN)NC(=O)[C@H](CCC(=O)O)NC(=O)[C@H](CCCCN)NC(=O)[C@H](CCC(=O)O)NC(=O)[C@H](CCC(N)=O)NC(=O)[C@H](CCCCN)NC(=O)[C@H](CCC(=O)O)NC(=O)[C@@H](NC(=O)[C@H](CCC(=O)O)NC(=O)[C@@H](NC(=O)[C@H](CCSC)NC(=O)[C@H](CCCCN)NC(=O)[C@H](CCCNC(=N)N)NC(=O)[C@H](CC(C)C)NC(=O)[C@H](CC(C)C)NC(=O)[C@H](CCC(N)=O)NC(=O)[C@H](CC(C)C)NC(=O)[C@@H]1CCCN1C(=O)[C@H](CC(C)C)NC(=O)[C@H](CC(=O)O)NC(=O)[C@@H](NC(=O)[C@H](CO)NC(=O)[C@@H](NC(=O)[C@@H]1CCCN1C(=O)[C@@H]1CCCN1C(=O)CNC(=O)[C@@H]1CCC(=O)N1)[C@@H](C)CC)[C@@H](C)CC)[C@@H](C)CC)[C@@H](C)CC)[C@@H](C)O)C(N)=O` [compound 80] are greater than 0.1 µM and 0.00653 µM.
Turning to `CC[C@H](C)[C@H](NC(=O)[C@H](CCC(=O)O)NC(=O)[C@@H](NC(=O)[C@H](CCSC)NC(=O)[C@H](CCCCN)NC(=O)[C@H](CCCNC(=N)N)NC(=O)[C@H](CC(C)C)NC(=O)[C@H](CC(C)C)NC(=O)[C@H](Cc1ccc(O)cc1)NC(=O)[C@H](CC(C)C)NC(=O)[C@@H]1CCCN1C(=O)[C@H](CC(C)C)NC(=O)[C@H](CC(=O)O)NC(=O)[C@@H](NC(=O)[C@H](CO)NC(=O)[C@@H](NC(=O)[C@@H]1CCCN1C(=O)[C@@H]1CCCN1C(=O)CNC(=O)[C@@H]1CCC(=O)N1)[C@@H](C)CC)[C@@H](C)CC)[C@@H](C)CC)C(=O)N[C@@H](CCC(=O)O)C(=O)N[C@@H](CCCCN)C(=O)N[C@@H](CCC(N)=O)C(=O)N[C@@H](CCC(=O)O)C(=O)N[C@@H](CCCCN)C(=O)N[C@@H](CCC(=O)O)C(=O)N[C@@H](CCCCN)C(=O)N[C@@H](CCC(N)=O)C(=O)N[C@@H](CCC(N)=O)C(=O)N[C@@H](C)C(=O)N[C@@H](C)C(=O)N[C@@H](CC(N)=O)C(=O)N[C@@H](CC(N)=O)C(=O)N[C@@H](CCCNC(=N)N)C(=O)N[C@@H](CC(C)C)C(=O)N[C@@H](CC(C)C)C(=O)N[C@@H](CC(C)C)C(=O)N[C@@H](CC(=O)O)C(=O)N[C@H](C(N)=O)[C@@H](C)O` [compound 81], the EC50 at CRF1R (read-out: CRF1R EC50) turned out to be 0.0609 µM; on CRF2R (read-out: CRF2R EC50), 0.0043 µM.
